Target: P-glycoprotein (Pgp, ABCB1) (Cricetulus griseus, UniProt P21448)
Experiment: biochemical

Amino acid sequences for entries named in this document (tags omitted).
UniProt P21448, whole entry: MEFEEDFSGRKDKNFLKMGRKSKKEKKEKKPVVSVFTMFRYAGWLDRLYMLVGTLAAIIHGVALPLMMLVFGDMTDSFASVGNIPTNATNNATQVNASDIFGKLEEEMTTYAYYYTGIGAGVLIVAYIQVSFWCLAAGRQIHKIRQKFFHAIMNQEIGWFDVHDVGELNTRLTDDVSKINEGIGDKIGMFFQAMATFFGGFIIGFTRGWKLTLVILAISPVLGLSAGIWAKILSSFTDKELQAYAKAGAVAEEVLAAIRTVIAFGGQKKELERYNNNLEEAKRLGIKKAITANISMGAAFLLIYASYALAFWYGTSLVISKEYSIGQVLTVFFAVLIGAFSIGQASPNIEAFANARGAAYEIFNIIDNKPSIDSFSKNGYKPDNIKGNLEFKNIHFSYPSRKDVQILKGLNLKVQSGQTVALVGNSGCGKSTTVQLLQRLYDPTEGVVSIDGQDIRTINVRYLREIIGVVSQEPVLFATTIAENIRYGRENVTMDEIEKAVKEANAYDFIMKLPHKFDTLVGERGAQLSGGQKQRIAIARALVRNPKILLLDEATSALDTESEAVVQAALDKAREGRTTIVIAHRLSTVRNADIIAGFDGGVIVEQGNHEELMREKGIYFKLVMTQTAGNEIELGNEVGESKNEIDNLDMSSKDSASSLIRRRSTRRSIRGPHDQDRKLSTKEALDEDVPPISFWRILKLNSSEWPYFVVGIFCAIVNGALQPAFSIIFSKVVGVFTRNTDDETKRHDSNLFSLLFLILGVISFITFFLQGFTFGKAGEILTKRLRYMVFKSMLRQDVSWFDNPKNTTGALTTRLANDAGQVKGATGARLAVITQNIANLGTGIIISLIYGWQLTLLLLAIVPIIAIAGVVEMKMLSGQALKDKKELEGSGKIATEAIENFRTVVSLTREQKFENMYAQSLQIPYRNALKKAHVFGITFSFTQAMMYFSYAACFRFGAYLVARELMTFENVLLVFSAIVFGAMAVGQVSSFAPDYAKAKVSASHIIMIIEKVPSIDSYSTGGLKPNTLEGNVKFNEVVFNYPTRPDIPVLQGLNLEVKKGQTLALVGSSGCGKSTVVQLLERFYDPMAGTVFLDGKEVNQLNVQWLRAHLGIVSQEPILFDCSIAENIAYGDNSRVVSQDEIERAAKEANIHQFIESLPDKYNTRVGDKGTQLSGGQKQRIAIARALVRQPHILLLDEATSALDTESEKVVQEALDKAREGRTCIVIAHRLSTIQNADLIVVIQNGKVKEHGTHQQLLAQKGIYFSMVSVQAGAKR

SMILES: COc1cc2c(c(OC)c1OC)-c1ccc(OC)c(=O)cc1[C@@H](NC(C)=O)CC2 [colchicine]
- IC50: 94.6 ± 47.6 µM

— publication PMC6005519, “Reconstitution and functional studies of hamster P-glycoprotein in giant liposomes” (PLoS ONE, 2018)
